## AlphaSeq binding of Ab-14 heavy chain variants to a spike HR2 peptide

All variants were tested on one target, the spike HR2 peptide PDVDLGDISGINAS (SARS-CoV-2).

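The parent was found by panning a naive human phage display library on the peptide. In library AAYL49, one, two or three CDR residues were substituted; doubles and triples were drawn at random. The assay is AlphaSeq: two haploid yeast populations carry antibody and antigen on their surface. Pairs that bind mate more often; barcode pairs of the diploids are counted by sequencing. Each replicate has its own calibration line, from reference interactions of the BCL2 family. There are three technical replicates.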

Parent scFv Ab-14: VH joined to VL by the linker GGGGSGGGGSGGGGS. Changes lie in the heavy chain CDRs alone.
VH: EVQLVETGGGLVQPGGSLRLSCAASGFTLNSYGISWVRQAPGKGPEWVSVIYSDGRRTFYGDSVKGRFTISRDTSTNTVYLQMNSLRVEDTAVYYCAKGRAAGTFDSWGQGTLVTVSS
VL: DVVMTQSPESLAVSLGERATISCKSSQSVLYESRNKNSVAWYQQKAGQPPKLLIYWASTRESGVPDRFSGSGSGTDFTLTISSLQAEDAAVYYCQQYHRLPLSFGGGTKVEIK

Each variant is given by its three heavy chain CDRs, as the data file delimits them; those of the parent are GFTLNSYGIS, VIYSDGRRTFYGDSVK, GRAAGTFDS.
This list gathers variants with a substitution at A102 (VH, numbered from residue 1).
Each Kd is an estimate from the mating assay, the geometric mean of the replicates in which the pair was seen; lower is stronger.
An entry "not detected" has no value in the source: the pair was not observed among the diploids in any replicate. This suggests poor binding but is not conclusive.
Nonspecific signal, from three strains lacking the peptide, appeared in 15% of pairings of library AAYL49, centred on 11 µM (5% of these signals below 680 nM); values are not corrected for it. The control count says in how many pairings with the empty strains this scFv gave a signal.

CDR-H1,CDR-H2,CDR-H3,apparent Kd,replicates with signal,control signals
GFTLNSYGIS,VIYSDGRRTFYGQSVI,GRAEGTFDS,6.6 µM,3/3,3/9
GFTLNSHGIS,VIYSDGRRTFYGDSVK,GRAIGTEDS,5.1 µM,2/3,5/9
GFTLNSYMIS,VIYSDGRRTFYGDSRK,GRAKGTFDS,6.2 µM,1/3,1/9
GFTLNSYGIL,VIYSDGRRTFYGDIVK,GRAKGTFDS,7.4 µM,3/3,2/9
GFTLNCYGIW,VIYSDGRRTFYGDSVK,GRAQGTFDS,not detected,0/3,0/9
GFTLNSYGIS,YIYSDGRRTFYGDSVK,GRASTTFDS,1.5 µM,1/3,1/9
GFTLNSYGIS,VIYSDGRLTFYGDSVD,GRAIGTFDS,not detected,0/3,1/9
GFTLNSYTIS,VTYSDGRRTFYGDSVK,GRAHGTFDS,11 µM,1/3,1/9
GFTLNSYGIS,VIYSDGFRTFYGDSVK,GRACGTFDS,700 nM,1/3,1/9
GFTGNSYGIS,VIYSDDRRTFYGDSVK,GRANGTFDS,50 µM,1/3,1/9
GFTLNSYGIS,VIYSDGRRTFYGCSVK,RRARGTFDS,3.1 µM,1/3,0/9
GFTLNSYGIS,VIYSDGRRTFYTDSVK,GFANGTFDS,4.3 µM,1/3,0/9
GFTLNSYGIS,VIYSDGRRTFYGSSVK,GRAQGTHDS,140 nM,3/3,1/9
GFTLNSYGIS,VIYSDGRRTFYGDAVK,GRAPGTWDS,not detected,0/3,0/9
GCTLNSYGIS,VIYLDGRRTFYGDSVK,GRADGTFDS,2.3 µM,1/3,1/9
GFTLNSYGIS,VIYSNGRRTFYGCSVK,GRAPGTFDS,not detected,0/3,1/9
RFTPNSYGIS,VIYSDGRRTFYGDSVK,GRACGTFDS,96 µM,3/3,3/9
GFTLNSYGIE,VIYSDGRRTMYGDSVK,GRAYGTFDS,not detected,0/3,0/9
GFTLNWYGIS,VIYSDGVRTFYGDSVK,GRAYGTFDS,not detected,0/3,0/9
GFTLNSYGIS,VIYSDGRRTFYGDNVK,LRAVGTFDS,11 µM,2/3,3/9
GFTLNSYGIL,VIYSDGRRTFYGDSVK,GRASTTFDS,240 µM,1/3,3/9
GFTLNSYGIS,VDYHDGRRTFYGDSVK,GRALGTFDS,not detected,0/3,1/9
GFTLNSYWIS,TIYSDGRRTFYGDSVK,GRAIGTFDS,160 µM,1/3,4/9
GFTLNSYGIS,VIYSDGRRTFGGDSMK,GRAHGTFDS,not detected,0/3,3/9
GPTLNSYKIS,VIYSDGRRTFYGDSVK,GRAPGTFDS,not detected,0/3,1/9
GFTLNSYGIS,VIYSDGERTFYVDSVK,GRAPGTFDS,43 nM,3/3,0/9
GFTLNSYGIS,VIYSDPRRTFYGDFVK,GRATGTFDS,1.7 mM,1/3,5/9
GFTLNSYGIS,VIYSDGRRTFYGDSVK,GRANGVPDS,64 nM,3/3,1/9
GFTLNSYGIS,VILSDTRRTFYGDSVK,GRAFGTFDS,not detected,0/3,0/9
GFTLNSYGIS,VIYSDGRHTEYGDSVK,GRATGTFDS,not detected,0/3,0/9
GFTLNSYGIS,VIYYDGRRTFYGDSVR,GRAQGTFDS,not detected,0/3,1/9
GFTLNSYGIS,VIYRDGRRGFYGDSVK,GRAGGTFDS,not detected,0/3,3/9
GFTLNSYGIS,VIYSDGRRTFYIDSVK,GRARITFDS,330 nM,3/3,1/9
GPTLNSYGIS,VIYSDGRRTFYGDSVK,GFARGTFDS,not detected,0/3,0/9
GFTLNSYGIW,VIYSDGRRTFYGDSVG,GRAIGTFDS,not detected,0/3,0/9
GFTLNSYGFS,VIYSDGRRTFYGDSVK,GRAHGTFDS,not detected,0/3,0/9
GFTLNSYGIS,VPYSDGRRTFYGDSIK,GRAFGTFDS,not detected,0/3,1/9
GFTLNSIGIS,VIYSDGRRTFYGDSVK,GEARGTFDS,4.0 µM,1/3,0/9
GFTLNSYGIS,MIYSDGRRTFYGDSYK,GRAQGTFDS,not detected,0/3,1/9
GFTLNSYGIS,VIYSDGEDTFYGDSVK,GRALGTFDS,47 µM,3/3,7/9
GFTLNSYGIS,VIYSDGRRTFYGLSVK,ERAEGTFDS,not detected,0/3,2/9
GFTLNSYGIS,VIYSDGLRTFYGDSVK,SRAEGTFDS,240 nM,3/3,2/9
LFTLNSYGIS,VIYSDGRRTFYGDSVK,GRATGTFDS,not detected,0/3,0/9
GFTLHSYGIS,VIYSDGRRTFYGDSVK,GRAPGTFDS,1.8 µM,3/3,1/9
GFTLNSYGDS,VIYSDGRDTFYGDSVK,GRAIGTFDS,11 µM,2/3,3/9
GFTANSYGIS,VIYSDGRRSFYGDSVK,GRAGGTFDS,not detected,0/3,0/9
GFTLNSYGIS,TIYSDGRRTFYMDSVK,GRAIGTFDS,not detected,0/3,1/9
GFTLNSYGIS,VIYSDGIRTFYGDSVK,GRASGTFDS,210 nM,3/3,0/9
GFTLNSYGIS,VIYSDGRRTVYGDSVC,GRAEGTFDS,410 nM,1/3,1/9
GFTLNSYGIS,VIYSDGRRTFYGDSVK,GRARKYFDS,250 nM,1/3,2/9
GFTLNSYCIS,VIYSDGRRTFRGDSVK,GRADGTFDS,91 µM,1/3,2/9
GFTLNSYGIS,VIYSDLRRTFYGDSVK,GRAQGTFDS,1.0 µM,1/3,1/9
GFTLNSYGIS,VWYSDGRRTFYTDSVK,GRASGTFDS,not detected,0/3,0/9
GFTLNSQGIS,VIYSDGRRTFMGDSVK,GRAIGTFDS,450 nM,3/3,3/9
GFTLNSYGIS,NIYSDGRRTFYGDSVK,GRAHGWFDS,46 µM,1/3,1/9
GFTLNSYGIS,VIYSDGRRTFYGDSVK,GRADGTFDS,520 nM,3/3,6/9
GFTLNSYGIS,TIWSDGRRTFYGDSVK,GRACGTFDS,630 µM,1/3,1/9
GFTLNSYGIS,VIYSDGRRTFYGDSVK,GRAMSTMDS,not detected,0/3,0/9
GPTLNSYGIS,VIYSDMRRTFYGDSVK,GRATGTFDS,not detected,0/3,1/9
GFTLNSYGTS,VIYSDGRDTFYGDSVK,GRAPGTFDS,not detected,0/3,2/9
GLTLNSYGIS,VIYSDGRRTFYGDSVK,GRAGGTFDS,9.5 µM,3/3,2/9
GFTLNSYGIS,VFYSDGRRTFYGDKVK,GRACGTFDS,13 µM,1/3,1/9
GFTLNSYGIS,VIYSPGRRTFYGDSVK,GRAKGTGDS,not detected,0/3,0/9
GFTLNSYGIS,VIYSDGRRTMYGDSVK,GRADGTFFS,8.2 nM,3/3,0/9
GFTLNSYQIS,VIYSDGRQTFYGDSVK,GRALGTFDS,26 µM,3/3,5/9
GFTLNSYGIS,TIYSDGRRTFYGDSVK,GRALGTCDS,3.8 µM,1/3,0/9

Extract of 7 entries:

{"CDR-H1": "GFTLNSYGIS", "CDR-H2": "VIYSDGRRTFYGQSVI", "CDR-H3": "GRAEGTFDS", "apparent Kd": "6.6 µM", "replicates with signal": "3/3", "control signals": "3/9"}
{"CDR-H1": "GFTLNSYGIS", "CDR-H2": "VIYSDGRRTFYGDSVK", "CDR-H3": "GRANGVPDS", "apparent Kd": "64 nM", "replicates with signal": "3/3", "control signals": "1/9"}
{"CDR-H1": "GFTLNSYGIS", "CDR-H2": "VIYSDGRHTEYGDSVK", "CDR-H3": "GRATGTFDS", "apparent Kd": "not detected", "replicates with signal": "0/3", "control signals": "0/9"}
{"CDR-H1": "GFTLNWYGIS", "CDR-H2": "VIYSDGVRTFYGDSVK", "CDR-H3": "GRAYGTFDS", "apparent Kd": "not detected", "replicates with signal": "0/3", "control signals": "0/9"}
{"CDR-H1": "GFTLNSYGIS", "CDR-H2": "VIYSDLRRTFYGDSVK", "CDR-H3": "GRAQGTFDS", "apparent Kd": "1.0 µM", "replicates with signal": "1/3", "control signals": "1/9"}
{"CDR-H1": "GFTLNSYGIL", "CDR-H2": "VIYSDGRRTFYGDIVK", "CDR-H3": "GRAKGTFDS", "apparent Kd": "7.4 µM", "replicates with signal": "3/3", "control signals": "2/9"}
{"CDR-H1": "GFTLNSYGTS", "CDR-H2": "VIYSDGRDTFYGDSVK", "CDR-H3": "GRAPGTFDS", "apparent Kd": "not detected", "replicates with signal": "0/3", "control signals": "2/9"}

Source: Engelhart et al. 2022 (doi:10.1038/s41597-022-01779-4), MIT Lincoln Laboratory and A-Alpha Bio; data file from the FLAb repository.